In PubChem BioAssay AID652054 (National Center for Advancing Translational Sciences (NCATS), 2013) one finds max response, negative = inhibition data, which are given here for 71 compounds.

Protein sequences, listed by entry. Tags and fused reporters are not part of them.
UniProt P35462, whole entry, looked up: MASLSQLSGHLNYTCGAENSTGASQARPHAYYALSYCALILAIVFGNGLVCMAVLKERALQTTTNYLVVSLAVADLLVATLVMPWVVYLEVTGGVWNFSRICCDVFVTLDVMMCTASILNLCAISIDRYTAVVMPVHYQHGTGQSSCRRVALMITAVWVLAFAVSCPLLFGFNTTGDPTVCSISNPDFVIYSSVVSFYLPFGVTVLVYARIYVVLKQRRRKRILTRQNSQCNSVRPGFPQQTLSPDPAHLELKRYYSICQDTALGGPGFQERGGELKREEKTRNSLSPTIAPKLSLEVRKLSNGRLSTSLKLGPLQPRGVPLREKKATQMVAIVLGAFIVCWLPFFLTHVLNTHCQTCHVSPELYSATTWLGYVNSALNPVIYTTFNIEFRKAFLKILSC

The entries are a selection whose mix differs from that of the whole data set. Records with an inconclusive call do not appear. Calls of active or inactive are those of the source. Cut-off read from the data, not from the text of the source: active = max response below about -50%; inconclusive = no clear call, values can overlap the other calls; inactive = above that.
% is set by controls: 0 for no effect and ±100 for the full control effect.

The experiment has as its target D(3) dopamine receptor (Homo sapiens) (UniProt P35462). The experiment in a line: qHTS of D3 Dopamine Receptor Antagonist: qHTS. The note with it: D3R cells, DiscoveRx beta-arrestin luminescence, antagonist mode; active compounds read low. A digest of the protocol: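 Cells plated overnight at 1500 cells/well, then exposed to library compounds with dopamine controls for 90 minutes at 37 degrees C. DiscoveRx reagent added for 30–60 minutes at room temperature; luminescence read, quantitative HTS format.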
Background: qHTS replaces the single test concentration by a dilution series.
As for `CC(C)C(=O)NC(Sc1ccccc1)C(Cl)(Cl)Cl` (stereo unspecified), the max response, negative = inhibition was inactive: -18.2%.
As to `O=P(Nc1nccs1)(c1ccccc1)c1ccccc1`, the max response, negative = inhibition is inactive: 0.148%.
In the case of `c1nnnn1CCn1cnnn1` it was inactive: 4.17%.
In the case of `C[C@H]1OP(=O)(Oc2ccccc2)C[C@@H]2O[C@@H]21` (stereo partly specified) it was inactive: 26.2%; in that of `C[C@@H]1C=CCP(=O)(Oc2ccccc2)O1` (stereo partly specified), inactive: 15.4%.
In the case of `Cc1ccccc1CN(C)C(=O)COC(=O)C(O)(c1ccccc1)c1ccccc1` it was inactive: 24.7%.
For `COC(=O)C1(C)COP(=O)(NCc2ccccc2)OC1` (stereo unspecified), the max response, negative = inhibition was inactive: 4.15%.
On to `CC(=O)c1ccc(N2CC2c2ccncc2)cc1` (stereo unspecified), for which the max response, negative = inhibition was active: -53.2%.
As for `N#C/C(=C\c1ccc(N(CCBr)CCBr)cc1)C(N)=O`, the max response, negative = inhibition was inactive: 11.6%.
Take `CC(=O)Nc1ccc(Oc2c([N+](=O)[O-])cc([N+](=O)[O-])cc2[N+](=O)[O-])cc1`: the max response, negative = inhibition was inactive: -13.3%.
As to `CC(=O)Nc1ccc([As](=O)(O)O)c(O)c1`, the max response, negative = inhibition is inactive: -1.39%.
On to `CCOc1ccc(C2=NCC(CBr)S2)cc1` (stereo unspecified), for which the max response, negative = inhibition is inactive: -10.4%.
The value for `O=P1(Nc2nc3ccc(Cl)cc3s2)COc2ccccc2O1` (stereo unspecified) was inactive: 9.16%.
The value for `CC(C)(C)C(=O)NC(Sc1ccccc1)C(Cl)(Cl)Cl` (stereo unspecified) was inactive: -4.64%; that for `CCc1cc(O)c([N+](=O)[O-])c(C)c1[N+](=O)[O-]` was inactive: -20.7%.
The value for `CCC(=O)N1C2C3N(C(=O)CC)C1C1N(C(=O)CC)C(C(N1C(=O)CC)N3C(=O)CC)N2C(=O)CC` was inactive: 14%; that for `O=C(OC1CN2CCC1CC2)c1ccccc1` (stereo unspecified) was inactive: -3.17%; that for `Cc1ccc(OP(=O)(Nc2ccccn2)Oc2ccc(C)cc2)cc1` was inactive: 13.3%.
Take `CC(=O)NC(SC(=S)N(CC(C)C)CC(C)C)C(Cl)(Cl)Cl` (stereo unspecified): the max response, negative = inhibition was inactive: 3.94%.
In the case of `COC(=O)c1cc2c(s1)N=C(c1ccccc1)N(C)P2(=O)N1CCOCC1` (stereo unspecified) it was inactive: 5.3%.
For `O=c1c2cc([N+](=O)[O-])ccc2[nH]c2c([N+](=O)[O-])cc([N+](=O)[O-])cc12`, the max response, negative = inhibition is inactive: -27.9%.
Consider `CN(C)C(=O)Oc1noc2ccccc12`, for which the max response, negative = inhibition was inactive: -3.87%.
The value for `CC(NC(=O)COC(=O)C(O)(c1ccccc1)c1ccccc1)c1ccccc1` (stereo unspecified) was inactive: 3.5%; that for `Cc1ccccc1OP(=O)(Nc1ccccn1)Oc1ccccc1C` was inactive: 16.5%.
As to `Cc1ccc(NP(=O)(Oc2cccc(C)c2)Oc2cccc(C)c2)nc1`, the max response, negative = inhibition is inactive: 0.969%.
Turning to `c1ccc(-c2nn[nH]n2)c(-c2nn[nH]n2)c1`, the max response, negative = inhibition is inactive: -8.91%.
In the case of `CCNC(=S)/N=C(\N)N[N+](=O)[O-]` it was inactive: -0.105%.
`O=C(NC1CCS(=O)(=O)C1)NP(=S)(Oc1ccccc1)Oc1ccccc1` (stereo unspecified): the max response, negative = inhibition was inactive: -7.2%.
In the case of `O=P1(N(CCCl)CCCl)OCCC2CCCCN21` (stereo unspecified) it was inactive: -7%; in that of `Nc1cccc2ccc([As](=O)(O)O)cc12`, inactive: 1.73%.
Take `CCN(N=Nc1nonc1N)c1nonc1N`: the max response, negative = inhibition was inactive: 24.4%.
The value for `O=P(Nc1nc2ccc(Cl)cc2s1)(c1ccccc1)c1ccccc1` was inactive: 43.6%; that for `CN(C)P(=O)(N(C)C)n1c(Nc2ccccc2)nnc1-c1ccccc1` was inactive: 12.6%; that for `CCCC1OP(N)(=O)OCC1CC` (stereo unspecified) was inactive: -3.64%.
In the case of `CC(=O)Nc1ccc([As](=O)(O)O)cc1`, the max response, negative = inhibition was inactive: 6.9%.
Consider `O=C(O)c1ccccc1[As](=O)(O)O`, for which the max response, negative = inhibition is inactive: -27.7%.
For `Cc1ccc(NP(=O)(Oc2ccccc2F)Oc2ccccc2F)nc1`, the max response, negative = inhibition was inactive: -4.56%.
The value for `CN(C(=O)Cc1ccc(Cl)c(Cl)c1)[C@H]1CCCC[C@@H]1N1CCCC1` was inactive: -18.1%; that for `Cc1cc(SC(NC(=O)c2ccc(F)cc2)C(Cl)(Cl)Cl)ncn1` (stereo unspecified) was inactive: 1.37%.
The value for `CCOP(=O)(Nc1ccccc1)OCC` was inactive: 0.403%; that for `Oc1ccccc1CNc1ccccn1` was inactive: 7.9%; that for `Nc1cc(N)c2nonc2c1[N+](=O)[O-]` was inactive: -19.2%.
The value for `CC(C)CC(=O)NC(Sc1ccc(Cl)cc1)C(Cl)(Cl)Cl` (stereo unspecified) was inactive: -11.3%; that for `O=[N+]([O-])C1C(O)C(O)C([N+](=O)[O-])C(O)C1O` (stereo unspecified) was inactive: 36.8%.
On to `Cc1ccc(N/C(=N/P(=O)(N2CCOCC2)N2CCOCC2)N2CCOCC2)cc1`, for which the max response, negative = inhibition was inactive: -7.64%.
Turning to `CN(C(=O)Cc1ccc(Cl)c(Cl)c1)[C@H]1CCCC[C@H]1N1CCCC1`, the max response, negative = inhibition is inactive: -19.7%.
In the case of `NC(=O)c1cc([N+](=O)[O-])cc([N+](=O)[O-])c1N` it was inactive: 8.59%; in that of `CN1CCCC(OC(=O)C(c2ccccc2)c2ccccc2)C1` (stereo unspecified), active: -68.1%; in that of `Clc1ccc(Cl)c(NC2=NCC(CBr)S2)c1` (stereo unspecified), inactive: 12.3%.
In the case of `Cc1ccc(OP(=O)(Nc2nccs2)Oc2ccc(C)cc2)cc1`, the max response, negative = inhibition is inactive: 2.03%.
Consider `COc1ccccc1OP(=O)(Nc1ccc(C)cn1)Oc1ccccc1OC`, for which the max response, negative = inhibition is inactive: 8.15%.
In the case of `CCN(/C(=N/P(=O)(N1CCOCC1)N1CCOCC1)N1CCOCC1)c1ccc(OC)cc1` it was inactive: 2.44%; in that of `C[N+]1=C2C=CC=CC=C2SC12C([N+](=O)[O-])=CC([N+](=O)[O-])=C[C-]2[N+](=O)[O-]` (stereo unspecified), active: -90.2%; in that of `Nc1ccc([As](=O)(O)c2ccc(N)cc2)cc1`, inactive: 9.77%.
As to `CC1CCN(C(=O)Oc2c(Cl)cc(Cl)c3cccnc23)CC1`, the max response, negative = inhibition is inactive: 17.3%.
On to `c1cc(-c2nn[nH]n2)ccc1-c1nn[nH]n1`, for which the max response, negative = inhibition is inactive: -1.65%.
The value for `CN(C)C(=O)OCCc1n(C)cc[n+]1C` was inactive: 6.09%; that for `CC(C)c1nc(Nc2ccccc2)n(P(=O)(N(C)C)N(C)C)n1` was inactive: 2.29%; that for `CC(C)=N/N=C(\N)N[N+](=O)[O-]` was inactive: -7.22%.
On to `COc1ccc(C2=NCC(CBr)S2)cc1` (stereo unspecified), for which the max response, negative = inhibition was inactive: 1.51%.
For `CCc1nc2c(n1)c1c(non1O)c1c2no[n+]1[O-]`, the max response, negative = inhibition is inactive: -5.78%.
Consider `O=[N+]([O-])c1cc([N+](=O)[O-])c(CCNc2ccccc2)c([N+](=O)[O-])c1`, for which the max response, negative = inhibition is inactive: -18.3%.
The value for `Cc1ccc(NP(=O)(Oc2ccccc2)Oc2ccccc2)nc1` was inactive: -10.9%.
In the case of `CC(=O)N1C2C3N(C(C)=O)C1C1N(C(C)=O)C(C(N1C(C)=O)N3C(C)=O)N2C(C)=O` it was inactive: 0%; in that of `O=[N+]([O-])c1ncn(CCn2ncnc2[N+](=O)[O-])n1`, inactive: 15.7%; in that of `CC(C)(C)C(=O)NC(Sc1ccncn1)C(Cl)(Cl)Cl` (stereo unspecified), inactive: -11%.
Regarding `O=C(O)CNc1ccc([As](=O)(O)O)cc1`, the max response, negative = inhibition was inactive: 2.05%.
In the case of `COC(=O)C1(C)COP(=O)(Nc2ccccc2)OC1` (stereo unspecified) it was inactive: -4.78%.
In the case of `O=[N+]([O-])c1cccc(NC2=NCC(CBr)S2)c1` (stereo unspecified) it was inactive: 0.223%; in that of `O=P1(N(CCCl)CCCl)OCCCS1` (stereo unspecified), inactive: -16.2%.
In the case of `O=C(Nc1cc([As](=O)(O)O)ccc1O)c1ccccc1` it was inactive: -0.779%.
